Earlier results in patent US6136797A, “Phospholipid derivatives of phosphono-carboxylic acids, the production of said derivatives and the use of said derivatives as antiviral medicaments” (priority 1995, dated 2000).

Tested on: HSV 1 and 2, influenza, HBV, VZV, EBV as well as retroviral infections
Conditions: cited from earlier work

## O=C(O)P(=O)(O)O [phosphonoformic acid]
  antiviral activity: good antiviral activity
